Measurements taken from patent US20260200947A1, “FUSED CYCLIC COMPOUNDS AND USE THEREOF” (Jacobio Pharmaceuticals Co., Ltd., priority 2022, published 2026).

Experiments:
[1] = tested on: Capan-2 cells (K-Ras G12V)
[2] = tested on: AGS cells (K-Ras G12D)

C#Cc1c(F)ccc2cc(N)cc(-c3nc4c5c(nc(OC[C@@]67CCCN6C[C@H](F)C7)nc5c3F)N3CC(=O)COC[C@H]3N4C)c12 [Compound 155B]
IC50 [1]: 4.72 nM | IC50 [2]: 4.62 nM
